# Experimental data: patent US20040142972A1, “CNS target modulators” (Hypnion, Inc., priority 2001, published 2004)
# Amino acid sequences for entries named in this document (tags omitted).
# UniProt P08172, whole entry: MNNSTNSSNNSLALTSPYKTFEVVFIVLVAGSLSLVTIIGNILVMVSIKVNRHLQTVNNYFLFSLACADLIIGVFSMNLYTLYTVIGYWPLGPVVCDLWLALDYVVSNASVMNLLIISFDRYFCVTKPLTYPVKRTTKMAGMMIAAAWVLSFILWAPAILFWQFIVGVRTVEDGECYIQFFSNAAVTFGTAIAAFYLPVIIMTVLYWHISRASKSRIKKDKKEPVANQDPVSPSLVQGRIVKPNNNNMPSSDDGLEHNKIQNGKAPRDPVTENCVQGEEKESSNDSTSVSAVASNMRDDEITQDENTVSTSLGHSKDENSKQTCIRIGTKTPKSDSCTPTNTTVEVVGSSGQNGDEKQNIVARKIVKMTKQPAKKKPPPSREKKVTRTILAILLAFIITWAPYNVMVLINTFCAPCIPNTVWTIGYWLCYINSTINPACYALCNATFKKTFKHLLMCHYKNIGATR
# Molecular target: T1, cloned muscarinic - M2 binding site (Homo sapiens, UniProt P08172)
# T1 construct: expressed in transfected cells; host or cells: CHO cells
# Assay: Muscarinic M2 binding assay, [3H]-Scopolamine N-Methyl Chloride, human recombinant expressed in CHO cells
# Conditions: Table 6, read-out: Receptor Binding Data (Ki nM) M2
smiles,measurement,value
O=C(O)CN1CCC(=C2c3ccccc3COc3ccccc32)CC1 [Compound 7a],Ki,> 10000 nM
